This is a selection; strong and weak results do not stand in their true shares. Calls of active or inactive are those of the source. Calls follow the shape of the dose curve; as a rule, active = well fitted inhibition curve with a large enough effect; inconclusive = small, poorly fitted or top-dose-only effect, or effect the other way; inactive = flat fitted curve, though single readings scatter.

Sequences of proteins named here, by UniProt entry; tags and fusion partners are left off. Residues count along the entry.
UniProt P06280, 32-429 limits assumed: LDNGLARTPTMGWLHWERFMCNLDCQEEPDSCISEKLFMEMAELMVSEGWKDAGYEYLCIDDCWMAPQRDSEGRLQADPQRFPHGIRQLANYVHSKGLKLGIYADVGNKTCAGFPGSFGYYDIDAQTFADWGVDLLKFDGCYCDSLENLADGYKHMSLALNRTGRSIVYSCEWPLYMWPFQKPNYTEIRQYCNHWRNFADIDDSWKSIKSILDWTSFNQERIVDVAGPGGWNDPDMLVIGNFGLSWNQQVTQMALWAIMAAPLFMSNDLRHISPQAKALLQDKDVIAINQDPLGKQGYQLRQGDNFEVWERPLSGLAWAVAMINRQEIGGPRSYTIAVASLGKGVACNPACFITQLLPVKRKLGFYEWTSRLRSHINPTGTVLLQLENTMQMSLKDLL

The assay deals with Alpha-galactosidase A (Homo sapiens) (UniProt P06280). Description: qHTS Assay for Inhibitors and Activators of Human alpha-Galactosidase From Spleen Homogenate.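 Also: 0% = enzyme with vehicle and -100% = no enzyme basal signal.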 The conditions noted are these: 4MU-alpha-Gal fluorescence, 40 min; at 80 µM (top of the series) unless noted. The source says:
NIH Chemical Genomics Center [NCGC] NIH Molecular Libraries Probe Production Centers Network [MLPCN] MLPCN Grant: R03 MH084842-01 Assay Submitter (PI): Wei Zheng NCGC Assay Overview: Alpha-galactosidase is a homodimeric glycoprotein that hydrolyzes the terminal alpha-galactosyl moieties from glycolipids and glycoproteins. Deficiency of this enzyme results in Fabry Disease with progressive accumulation of globotriaosylceramide and other glycosphingolipids in vascular endothelial cells that causes renal failure, myocardial infarction and stroke, and premature death in patients. It has been reported that the improper folding and trafficking of alpha-galactosidase resulting from genetic mutations may account for a significant number of Fabry patients. […] We optimized this alpha-galactosidase assay in 1536-well plate format for identification of novel small molecule inhibitors or activators with structures other than the sugar analogs in order to develop new pharmacological chaperones. In particular, this assay is directed towards discovering compounds active in more natural setting, tissue homogenate, that may have been missed by screens of the purified enzyme under more stringent conditions.
NCGC Assay Protocol Summary: This is a fluorogenic enzyme assay with 4-methylumbelliferyl-alpha-D-galactopyranoside as the substrate and human spleen homogenate containing alpha-galactosidase as the enzyme preparation. Upon hydrolysis of this fluorogenic substrate, the resulting product, 4-methylumbelliferone (which excites at 365 nm and emits at 440 nm) can be detected by a fluorescence plate reader. Data were normalized to the controls for basal activity (without enzyme) and 100% activity (with enzyme). The AC50 values were determined from concentration-response data modeled with the standard Hill equation. Assay buffer: 50 mM citric acid (titrated with potassium phosphate to pH 5.0), 0.01% Tween-20 (pH 5.0 is an optimal condition for this enzyme assay) 1536-well assay protocol for the alpha-galactosidase from human spleen homogenate: (1) Add 2 ul/well spleen homogenate (1 ug) (2) Add 23 nL compounds in DMSO solution. The final titration was 0.5 nM to 58 uM. (3) Add 2 ul of substrate (1 mM final) (4) Incubate at 37C for 40 min (5) Add 2 ul stop solution (1M NaOH and 1M Glycine mixture, pH 10) (6) Detect the assay plate in a ViewLux plate reader (PerkinElmer) with Ex=365 nm and Em=440nm. Keywords: Alpha-galactosidase, Fabry Disease, pharmacological chaperone, chaperone therapy, high throughput screening, alpha- galactosidase inhibitor, MLSMR, MLSCN, NIH Roadmap, qHTS and NCGC
(In qHTS, concentration-response curves come from the screen itself.)
As to `Cc1ccc(C)c(NP(C)(=O)Oc2ccccc2)c1` (configuration not stated), the activity change, negative = inhibition was inactive: 0.744%.
Take `CP(=O)(Nc1cccc(Br)c1)Oc1ccccc1` (configuration not stated): the activity change, negative = inhibition is inactive: 9.37%.
On to `Cc1cc(C)cc(OP(C)(=O)Nc2ccccn2)c1` (configuration not stated), for which the activity change, negative = inhibition was inactive: 6.15%.
Under `CCOC(=O)c1ccc(NP(C)(=O)Oc2cc(C)cc(C)c2)cc1` (configuration not stated) stands inactive: -6.31%; under `Cc1cc(C)cc(OP(C)(=O)Nc2ccc(C)cc2C)c1` (configuration not stated), inactive: -3.62%.
On to `COc1ccccc1OP(C)(=O)Nc1cccc(Br)c1` (configuration not stated), for which the activity change, negative = inhibition is inactive: 3.72%.
For the compound `CC1=NCCc2c1[nH]c1ccccc21.O=[N+]([O-])c1cc([N+](=O)[O-])c(O)c([N+](=O)[O-])c1`, the activity change, negative = inhibition is inactive: -5.88%.
Regarding `O=[N+]([O-])OCC(CO[N+](=O)[O-])(CO[N+](=O)[O-])CO[N+](=O)[O-]`, the activity change, negative = inhibition is inactive: 10.2%.
Under `Cc1ccc([N+](=O)[O-])cc1[N+](=O)[O-]` stands inactive: -0.672%.
On to `O=[N+]([O-])c1cccc([N+](=O)[O-])c1`, for which the activity change, negative = inhibition was inactive: 5.34%.
With `CP(=O)(Nc1ccc(SC(F)(F)F)cc1)Oc1ccccc1` (configuration not stated), the activity change, negative = inhibition was inactive: 1.86%.
Take `CCCOc1ccc(NP(C)(=O)Oc2ccc(Cl)cc2)cc1` (configuration not stated): the activity change, negative = inhibition is inactive: -7.61%.
For `CN1CCCCC1COC(=O)C1(O)c2ccccc2CCc2ccccc21` (configuration not stated), the activity change, negative = inhibition is inactive: 8.69%.
Consider `COc1ccccc1OP(C)(=O)Nc1c(C)cccc1C` (configuration not stated), for which the activity change, negative = inhibition was inactive: -2.14%.
For `O=[N+]([O-])c1cc([N+](=O)[O-])c(Nc2nnnn2CCO)c([N+](=O)[O-])c1`, the activity change, negative = inhibition was inactive: -7%.
Under `Cc1nc2ccc3ccccc3c2s1.O=[N+]([O-])c1cc([N+](=O)[O-])c(O)c([N+](=O)[O-])c1` stands inactive: 4.58%; under `CC(C)N(CCCl)C(C)C`, inactive: -4.79%; under `O=[N+]([O-])c1cc([N+](=O)[O-])c(-n2nnc3ccccc32)c([N+](=O)[O-])c1`, inactive: 3.96%.
The same measure for `CP(=O)(Nc1ccccn1)Oc1ccc(Cl)cc1` (configuration not stated): inactive: -2.36%; for `CCOC(=O)c1ccc(NP(C)(=O)Oc2ccc(OC)cc2)cc1` (configuration not stated): inactive: -4.27%; for `CCOP(C)(=S)SCC(=O)NC(C)C(=O)O` (configuration not stated): inactive: 21.4%.
`CCc1ccc(OP(C)(=O)N2CCN(c3ccc([N+](=O)[O-])cc3)CC2)cc1` (configuration not stated): the activity change, negative = inhibition is inactive: 3%.
The same measure for `CP(=O)(NC(=O)Nc1ccccc1)Oc1ccccc1` (configuration not stated): inactive: 5.94%; for `Cc1cc(C)cc(OP(C)(=O)Nc2ccc(SC(F)(F)F)cc2)c1` (configuration not stated): inactive: 0.947%.
With `CP(=O)(Nc1ccc(SC(F)(F)F)cc1)Oc1ccc(Cl)cc1` (configuration not stated), the activity change, negative = inhibition is inactive: 9.74%.
Under `Cc1cccc(C)c1OP(C)(=O)Nc1ccc(SC(F)(F)F)cc1` (configuration not stated) stands inactive: -19.3%; under `CP(=O)(Oc1ccccc1)OC(c1ccccc1)C(F)(F)F` (configuration not stated), inactive: -2.09%; under `CP(=O)(Nc1ccccc1Br)Oc1ccccc1` (configuration not stated), inactive: -2.15%.
On to `COc1ccccc1OP(C)(=O)Nc1ccccc1` (configuration not stated), for which the activity change, negative = inhibition was inactive: -0.432%.
Turning to `CP(=S)(Nn1cnnc1)Oc1ccccc1` (configuration not stated), the activity change, negative = inhibition was inactive: -15.3%.
The same measure for `Cc1cc(C)cc(OP(C)(N)=O)c1` (configuration not stated): inactive: 16.7%.
Turning to `COc1ccccc1OP(C)(=O)Nc1cc(Cl)ccc1C` (configuration not stated), the activity change, negative = inhibition is inactive: -0.687%.
The same measure for `COc1ccc(OP(C)(=O)Nc2cccc(F)c2)cc1` (configuration not stated): inactive: 3.48%; for `COc1ccccc1OP(C)(=O)Nc1ccc(C)cc1` (configuration not stated): inactive: -1.11%; for `Cc1ccc(NP(C)(=O)Oc2ccccc2)c(C)c1` (configuration not stated): inactive: 2.68%.
Under `CCOC(=O)c1ccc(NP(C)(=O)Oc2ccccc2)cc1` (configuration not stated) stands inactive: 8.06%; under `O=[N+]([O-])c1ccc2c(c1)C=Nc1ccccc1O2`, inactive: 0.906%; under `CC(C)(C)c1ccc(OP(C)(=O)Nc2ccc(SC(F)(F)F)cc2)cc1` (configuration not stated), inactive: -8.8%.
The same measure for `O=C(O)C(O)(c1ccccc1)c1ccccc1`: inactive: 14.2%; for `Cc1cccc(C)c1OP(C)(N)=O` (configuration not stated): inactive: -12.1%.
`O=C(O)C1(O)c2ccccc2-c2ccccc21`: the activity change, negative = inhibition is inactive: -7.29%.
On to `O=[N+]([O-])[O-].[NH4+]`, for which the activity change, negative = inhibition was inactive: 10.2%.
Turning to `CCN(CC)CCCOC(=O)C(O)(c1ccccc1)c1ccccc1`, the activity change, negative = inhibition is inactive: 7.12%.
`COc1ccccc1OP(C)(=O)Nc1ccc(C)cc1C` (configuration not stated): the activity change, negative = inhibition is inactive: -12.6%.
Regarding `CCc1ccc(OP(C)(=O)O)cc1`, the activity change, negative = inhibition is inactive: 1.96%.
Under `O=[N+]([O-])c1cc([N+](=O)[O-])c(Nc2ccccn2)c([N+](=O)[O-])c1` stands inactive: -0.0912%; under `Cc1c(NP(C)(=O)Oc2ccc(C(C)C)cc2)c(=O)n(-c2ccccc2)n1C` (configuration not stated), inactive: -3.42%.

The values are drawn from PubChem BioAssay AID2107 (National Center for Advancing Translational Sciences (NCATS), 2009).
